The results in this text go back to BindingDB's records for US9475819.

Sequences of proteins named here, by UniProt entry; tags and fusion partners are left off.
UniProt P56718, whole entry, looked up: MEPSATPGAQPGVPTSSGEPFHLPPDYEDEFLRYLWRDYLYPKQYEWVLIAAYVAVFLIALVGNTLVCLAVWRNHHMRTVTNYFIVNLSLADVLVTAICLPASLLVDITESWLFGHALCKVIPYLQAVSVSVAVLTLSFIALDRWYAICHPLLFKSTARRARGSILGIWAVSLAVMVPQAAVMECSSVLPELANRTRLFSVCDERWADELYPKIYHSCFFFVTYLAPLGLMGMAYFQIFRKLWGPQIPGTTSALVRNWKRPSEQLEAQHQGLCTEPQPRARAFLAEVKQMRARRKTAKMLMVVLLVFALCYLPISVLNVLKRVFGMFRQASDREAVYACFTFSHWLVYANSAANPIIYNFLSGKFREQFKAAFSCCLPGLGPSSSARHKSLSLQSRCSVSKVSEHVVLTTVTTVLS

Usually Ki stands for the equilibrium dissociation constant of an inhibitor or competing ligand from its target. Lower therefore signals a stronger hold on the target.

This test concerns the target Orexin/Hypocretin receptor type 1 (Rattus norvegicus, UniProt P56718). The test can be described thus: Radioligand Binding Assay.

Take `Cc1ccc(-n2nccn2)c(C(=O)N2C3CCC2C(Nc2ccc(Br)cn2)C3)n1` (stereo unspecified): the Ki came to 38 nM.
